# B1: nonglycosylated CD3ε protein (recombinant) (receptor)
# chain: DGNEEMGGITQTPYKVSISGTTVILTCPQYPGSEILWQHNDKNIGGDEDDKNIGSDEDHLSLKEFSELEQSGYYVCYPRGSKPEDANFYLYLRARVCENCMEMDVMSVATIVIVDICITGGLLLLVYYWSKNRKAKAKPVTRGAGAGGRQRGQNKERPPPVPNPDYEPIRKGQRDLYSGLNQRRI
# notes: CD3ε; nothing is said of the recombinant protein itself; source: prokaryotic expression system, purified
# Target: T1, purified recombinant nonglycosylated K-TM protein (human, UniProt Q69384 466-699)
# T1 construct: K-TM subunit of HERV-K Env; One partner of the BLI was biotinylated and held on an SA chip; source: prokaryotic expression system, purified
# T1 sequence: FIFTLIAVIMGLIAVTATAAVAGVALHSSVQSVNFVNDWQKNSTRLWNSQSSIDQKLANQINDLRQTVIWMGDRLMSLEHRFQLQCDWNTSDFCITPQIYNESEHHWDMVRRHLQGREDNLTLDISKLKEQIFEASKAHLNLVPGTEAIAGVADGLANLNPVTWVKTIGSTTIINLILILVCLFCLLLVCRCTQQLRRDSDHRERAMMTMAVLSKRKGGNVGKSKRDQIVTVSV
# Assay: BLI; Octet R8; one protein biotinylated and immobilised on an SA chip (which one is not said), the other in twofold dilutions in PBST; association 200 s, dissociation 300 s
# Details: both partners purified
binder,measurement,value
B1,Kd,67.7 nM
